Experimental findings from BindingDB's records for doi:10.1124/jpet.103.054775 (Cornell University, 2003) are described below.

The chains behind the UniProt entries cited, without tags or fusion partners. Where a name states a change or a piece, a line headed by the entry shows the natural chain unless it says otherwise.
UniProt P41143, whole entry: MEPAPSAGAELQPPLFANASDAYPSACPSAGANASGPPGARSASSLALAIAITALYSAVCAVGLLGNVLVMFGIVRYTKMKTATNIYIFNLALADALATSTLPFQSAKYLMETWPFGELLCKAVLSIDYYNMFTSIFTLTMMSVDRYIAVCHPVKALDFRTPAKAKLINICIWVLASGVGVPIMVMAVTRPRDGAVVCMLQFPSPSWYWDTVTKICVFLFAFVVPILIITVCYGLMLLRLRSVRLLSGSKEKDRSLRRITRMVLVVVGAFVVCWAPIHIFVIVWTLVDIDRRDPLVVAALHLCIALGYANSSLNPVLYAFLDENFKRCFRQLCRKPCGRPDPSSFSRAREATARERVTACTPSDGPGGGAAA
UniProt P41145: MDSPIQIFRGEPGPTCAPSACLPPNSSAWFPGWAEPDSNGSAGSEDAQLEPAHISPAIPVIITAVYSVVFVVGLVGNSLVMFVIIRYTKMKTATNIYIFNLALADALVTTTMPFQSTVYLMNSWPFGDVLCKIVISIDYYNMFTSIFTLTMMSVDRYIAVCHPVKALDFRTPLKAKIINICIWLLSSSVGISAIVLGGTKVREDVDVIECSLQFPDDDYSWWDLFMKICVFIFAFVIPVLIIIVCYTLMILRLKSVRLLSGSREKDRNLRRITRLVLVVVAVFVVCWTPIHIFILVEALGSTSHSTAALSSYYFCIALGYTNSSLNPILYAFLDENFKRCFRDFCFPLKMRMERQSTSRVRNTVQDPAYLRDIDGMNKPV
UniProt P35372, whole entry: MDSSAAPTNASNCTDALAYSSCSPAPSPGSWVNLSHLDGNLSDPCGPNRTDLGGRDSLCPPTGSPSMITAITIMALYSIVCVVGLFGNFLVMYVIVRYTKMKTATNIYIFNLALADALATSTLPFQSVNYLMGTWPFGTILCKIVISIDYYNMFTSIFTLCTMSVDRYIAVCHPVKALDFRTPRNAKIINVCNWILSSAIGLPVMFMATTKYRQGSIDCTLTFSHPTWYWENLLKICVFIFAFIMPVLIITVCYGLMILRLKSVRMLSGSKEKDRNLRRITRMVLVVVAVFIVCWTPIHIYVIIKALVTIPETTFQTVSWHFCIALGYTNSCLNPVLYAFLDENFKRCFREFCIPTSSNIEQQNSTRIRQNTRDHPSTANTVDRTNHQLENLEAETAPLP

One may read the pKi as the Ki on a negative log10 scale, so that one unit is a factor of ten. Low values mean a large Ki, high ones a small Ki.

Each structure is given as a SMILES string. pKi: −log10 of the molar value.

The target in test [1] is Delta-type opioid receptor (Homo sapiens, UniProt P41143).
Test [2] deals with Kappa-type opioid receptor (Homo sapiens, UniProt P41145).
The target in the next test is Mu-type opioid receptor (Homo sapiens, UniProt P35372).

`Cc1cc(O)cc(C)c1C[C@H](N)C(=O)N[C@H](CCCNC(=N)N)C(=O)N[C@@H](Cc1ccccc1)C(=O)N[C@@H](CCCCN)C(N)=O` [[Dmt1]DALDA]: the negative logarithm of the Ki (pKi) in test [1] was 5.78; in test [2], 8.36; on Mu-type opioid receptor, 9.76.
